Measured values published in patent publication US7488832B2, “Azolylacylguanidines as β-secretase inhibitors” (Wyeth, priority 2005, dated 2009).

The chains behind the UniProt entries cited, without tags or fusion partners. Residues count along the entry.
UniProt P56817, 46-501 limits assumed: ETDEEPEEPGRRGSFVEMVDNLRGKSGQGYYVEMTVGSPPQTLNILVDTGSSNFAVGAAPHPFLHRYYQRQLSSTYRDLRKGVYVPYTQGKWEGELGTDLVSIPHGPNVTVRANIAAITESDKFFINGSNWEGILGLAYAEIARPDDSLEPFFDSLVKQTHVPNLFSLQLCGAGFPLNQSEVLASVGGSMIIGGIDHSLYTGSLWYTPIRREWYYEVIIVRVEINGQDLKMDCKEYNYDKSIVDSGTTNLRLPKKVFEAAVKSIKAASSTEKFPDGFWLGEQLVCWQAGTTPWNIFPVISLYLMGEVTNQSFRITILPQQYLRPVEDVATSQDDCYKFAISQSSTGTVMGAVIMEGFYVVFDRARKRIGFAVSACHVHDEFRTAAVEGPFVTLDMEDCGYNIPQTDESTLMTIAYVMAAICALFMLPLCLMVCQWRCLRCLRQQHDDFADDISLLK

Biological target: human BACE1 (Homo sapiens, UniProt P56817)
Assay: Fluorescent kinetic assay, human BACE1 (FRET peptide substrate WABC-6);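 further: fluorescence monitored at excitation 320 nm and emission 420 nm over 30 min, with the substrate cleavage rate taken as the linear slope of the signal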
Assay type: biochemical
Conditions: read-out: IC50 (μM) BACE 1, 25 μM substrate WABC-6, pH 4.5, room temperature

Structure (SMILES)	IC50 [µM]
NC(=NC(=O)Cn1c(-c2ccccc2)ccc1-c1ccc(Br)cc1)NCCCO	0.11 to 1
NC(=NC(=O)Cn1c(-c2ccccc2)ccc1-c1ccc(Br)cc1)NCc1ccc(F)c(F)c1F	1.1 to 5
COC(=O)[C@@H](C)CNC(N)=NC(=O)Cn1c(-c2ccc(Oc3ccccc3)cc2)ccc1-c1ccccc1Cl	1.1 to 5
CC(=O)Nc1ccc(-c2ccc(-c3cccc(Cl)c3)n2CC(=O)N=C(N)N)cc1Br	1.1 to 5
CC(=O)OCCNC(N)=NC(=O)Cn1c(-c2ccc(Oc3ccccc3)cc2)ccc1-c1ccccc1Cl	0.11 to 1
C=C(C)COc1ccc(-c2ccc(-c3ccccc3)n2CC(=O)N=C(N)N)cc1	1.1 to 5
NC(=NC(=O)Cn1c(-c2ccccc2)ccc1C12CC3CC(CC(C3)C1)C2)NCCC1OCCO1	0.11 to 1
N#CCCCNC(N)=NC(=O)Cn1c(-c2ccc(Oc3ccccc3)cc2)ccc1-c1ccccc1Cl	0.11 to 1
NC(=NC(=O)Cn1c(-c2ccccc2)ccc1C12CC3CC(CC(C3)C1)C2)N[C@H]1CC[C@H](O)CC1 (relative stereo)	0.11 to 1
